Data on two molecules can be found in ChEMBL document CHEMBL4613246, “Antimycobacterial Rufomycin Analogues from Streptomyces atratus Strain MJM3502” (J Nat Prod, 2020).

In experiment [1] the test system is Mycobacteroides abscessus. Briefly: Antimycobacterial activity against Mycobacterium abscessus ATCC 19977 assessed as reduction in microbial growth after 7 days by alamar blue assay. Type of experiment: functional. The following applies: ATCC 19977, 168 h.
For experiment [2], the system named is Vero. Kind of experiment: cells. The following applies: Chlorocebus sabaeus.

As to `C/C=C/C[C@@H]1NC(=O)[C@H](CC(C)C)N2C(=O)[C@H](C[C@](C)(O)[C@H]2O)N(C)C(=O)[C@H](C)NC(=O)[C@H](Cc2ccc(O)c([N+](=O)[O-])c2)NC(=O)[C@H](CC(C)C)N(C)C(=O)[C@H](Cc2cn(C(C)(C)[C@H]3CO3)c3ccccc23)NC1=O`, the minimal inhibitory concentration (MIC) in experiment [1] was 0.58 µM. Also, the IC50 in experiment [2] was > 10 µM.

As to `C/C=C/C[C@@H]1NC(=O)[C@H](CC(C)C)N2C(=O)[C@H](C[C@@H](C)[C@H]2O)N(C)C(=O)[C@H](C)NC(=O)[C@H](Cc2ccc(O)c([N+](=O)[O-])c2)NC(=O)[C@H](CC(C)C)N(C)C(=O)[C@H](Cc2cn(C(C)(C)[C@H](O)CO)c3ccccc23)NC1=O`, the MIC in experiment [1] turned out to be 0.54 µM. In addition, the IC50 in experiment [2] is > 100 µM.
